A selection: hits, their analogues and other compounds. The true share with any hit is near 1.2%.
Arrestin-AP2 inh – inhibitors of beta-arrestin/AP2 binding, primary screen, biochemical, GPCR trafficking, flow cytometry | beta-arrestin 1 C-terminal peptide binding to AP2 beta2-adaptin appendage (human) | FITC-arrestin peptide / GST-AP2 beads; AP2 beta2 appendage carries R879A mutation | inhibition, % at 10 µM | hit rate 0.31% among 340,000 | AID 504490, 2011;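 active = inhibition above a set limit, near 3 SD of compounds lacking own fluorescence, cut at about 54% in these data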;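 also: plate controls were DMSO wells for no effect and 5 µM unlabelled arrestin peptide for full effect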
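Material – GST-tagged AP2 beta2-adaptin appendage (R879A) on 4 µm glutathione beads · Probe or stimulus – fluorescein-tagged arrestin peptide at 50 nM final · Timing – 12 min plus 1 h, RT · Detection – bead flow cytometry, FITC channel · Read-out basis – inhibition as reduced fluorescein signal on beads, percent · Medium – PBS plus Tween 20 (0.05%) and BSA (0.1%)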
DSG3 Ab inh – inhibitors of pemphigus antibody binding to DSG3, primary screen, biochemical, bead-based, flow cytometry, scFv-GFP | Desmoglein-3 (Homo sapiens), P32926 | DSG3-coupled beads, scFv-anti-DSG3-GFP binding; stronger effect = lower value | binding (percent of control), % at 10 µM | hit rate 0.48% among 310,000;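 active = binding more than 3 SD below its plate's average and above zero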
TbMetRS inhib – T. brucei MetRS inhibitors, primary screen, biochemical, luminescence; methionyl-tRNA synthetase (Trypanosoma brucei brucei); purified T. brucei MetRS, ATP depletion, Kinase-Glo luminescence; inhibition, % at 11.9 µM; hit rate 0.4% among 360,000; AID 624268, 2012;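 active = inhibition above a per-plate cutoff of the control wells' mean inhibition plus 3 SD, cut at about 5.5% in these data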;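 also: 0% = DMSO wells median and 100% = median of wells with control inhibitor compound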
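Dosing: 11.9 µM single point; system: parasite MetRS enzyme; technique: luminescence of leftover ATP; times: 15 min enzyme-compound preincubation, 2 h reaction, 10 min detection, 25 °C; replicates: each compound tested once; read-out basis: percent inhibition relative to median high and low control wells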
Rce1 inh – yeast Rce1p protease inhibitors, primary screen, biochemical, fluorescence, cell-free homogeneous. CAAX prenyl protease 2 (Saccharomyces cerevisiae (strain ATCC 204508 / S288c)), Q03530. yeast membranes, quenched prenylated peptide cleavage fluorescence. calls only. hit rate 0.27% among 290,000;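 active = fall in fluorescence gain of 50% or more versus controls, with final raw signal at or below 3038400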;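 also: plate controls were neutral control wells for no effect and wells lacking membranes for full effect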
Yeast UUG start – alters start codon recognition fidelity in yeast | S. cerevisiae UUG-firefly luciferase reporter, luminescence/redox ratio | activity score, % at 18.7 µM | 350,000 compounds, 0.13% hits | AID 602363;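 active = replicate mean at a twofold rise or more, about +100% in these data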;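 note: firefly luciferase made from a UUG start codon reports start codon fidelity; reporter light over untreated wells divided by growth signal over untreated wells; some hits fall short of that in this replicate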
Arr-AP2 CP1 – inhibitors of arrestin peptide binding to AP2, confirmation, biochemical, cherry pick 1, flow cytometry beads. AID 504908, 2011. GST-AP2 beads, FITC arrestin peptide binding; GST-fused beta2-adaptin appendage, R879A mutant. inhibition, % at 10 µM. shares compounds with Arrestin-AP2 inh. hit rate 2% among 1,300;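 active = inhibition above a set limit, roughly 3 SD of non-fluorescent compound noise, cut at about 38% in these data; inactive = inhibition at or below that limit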;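 also: loss of bead fluorescence from 50 nM FITC arrestin peptide bound to appendage; 0% = negative control wells and 100% = excess unlabelled arrestin peptide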
GST GSH counter – GST-fluorescein capture on glutathione beads, confirmation, artefact control for arrestin-AP2 inhibitor project, biochemical, cherry pick 1, flow cytometry. hit rate 2% among 1,300. GST-fluorescein binding to GSH beads, fluorescence, counter-screen. shares compounds with Arrestin-AP2 inh. inhibition, % at 10 µM;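 active = inhibition above 50%, about 3 SD of the inhibition seen with non-fluorescent compounds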;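 also: fluorescein maleimide labelled GST captured on 4 micron glutathione beads; higher means more loss of bead fluorescence from quenching or blocked binding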
Starred values were filed as active, the others as inactive.

By UniProt entry, the sequences of proteins in these tests, tags left out.
Desmoglein-3 (Homo sapiens), P32926, UniProt P32926, whole entry, looked up: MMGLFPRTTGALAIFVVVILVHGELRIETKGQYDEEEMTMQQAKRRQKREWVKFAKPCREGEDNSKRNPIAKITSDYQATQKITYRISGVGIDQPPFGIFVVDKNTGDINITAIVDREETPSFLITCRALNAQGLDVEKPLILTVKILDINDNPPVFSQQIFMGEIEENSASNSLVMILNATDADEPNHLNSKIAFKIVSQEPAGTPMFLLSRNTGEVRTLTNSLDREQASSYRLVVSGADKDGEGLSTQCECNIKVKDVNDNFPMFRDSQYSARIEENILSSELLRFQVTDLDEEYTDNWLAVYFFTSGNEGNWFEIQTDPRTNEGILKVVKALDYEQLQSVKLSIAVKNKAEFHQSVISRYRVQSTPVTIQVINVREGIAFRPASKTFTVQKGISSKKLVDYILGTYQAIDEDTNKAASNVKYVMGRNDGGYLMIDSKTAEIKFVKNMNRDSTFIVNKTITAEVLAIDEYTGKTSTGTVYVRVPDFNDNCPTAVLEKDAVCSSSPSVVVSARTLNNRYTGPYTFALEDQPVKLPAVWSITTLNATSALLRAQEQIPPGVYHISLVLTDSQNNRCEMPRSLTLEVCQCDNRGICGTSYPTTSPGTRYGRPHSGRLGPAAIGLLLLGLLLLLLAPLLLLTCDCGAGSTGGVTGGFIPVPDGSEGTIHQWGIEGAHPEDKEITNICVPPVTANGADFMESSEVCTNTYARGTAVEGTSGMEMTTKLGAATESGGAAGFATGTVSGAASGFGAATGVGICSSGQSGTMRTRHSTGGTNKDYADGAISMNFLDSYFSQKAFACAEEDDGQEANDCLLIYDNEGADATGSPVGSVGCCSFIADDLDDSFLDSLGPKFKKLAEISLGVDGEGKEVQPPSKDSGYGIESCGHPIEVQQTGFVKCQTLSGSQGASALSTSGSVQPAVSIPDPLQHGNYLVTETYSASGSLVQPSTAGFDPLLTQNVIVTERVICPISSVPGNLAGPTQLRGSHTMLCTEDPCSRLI

`O=C(CCc1ccccc1Cl)Nc1ccc(S(=O)(=O)N2CCOCC2)cc1` gave Arrestin-AP2 inh 59*, DSG3 Ab inh 102, TbMetRS inhib 0, Rce1 inh inactive, Yeast UUG start -8, Arr-AP2 CP1 -4 and GST GSH counter -2.
O=C(/C=C/c1ccc(F)cc1)Nc1ccc(S(=O)(=O)N2CCOCC2)cc1 was read as Arrestin-AP2 inh 54*, DSG3 Ab inh 78, TbMetRS inhib 0, Rce1 inh inactive, Yeast UUG start -17, Arr-AP2 CP1 -6 and GST GSH counter 10.
O=C(NCc1ccccc1Cl)c1cnccc1C(F)(F)F was read as Arrestin-AP2 inh 55*, DSG3 Ab inh 115, TbMetRS inhib 0, Rce1 inh inactive, Arr-AP2 CP1 -4 and GST GSH counter -9.
`O=C(Nc1nnc(-c2ccncc2)o1)C1CCCCC1` gave Arrestin-AP2 inh 19, DSG3 Ab inh 103, TbMetRS inhib 0 and Rce1 inh inactive.
O=C(Nc1nnc(C2=COCCO2)o1)C1CCCCC1 was read as Arrestin-AP2 inh 59*, TbMetRS inhib 0, Rce1 inh inactive, Yeast UUG start 44, Arr-AP2 CP1 4 and GST GSH counter 1.
`CC(C)NC(=O)Nc1ccc2c(c1)C(=O)N([C@@H](C)CO)C[C@@H](C)[C@H](CN(C)C(=O)Nc1ccc(C(F)(F)F)cc1)OCCCC[C@@H](C)O2` gave Yeast UUG start 38.
For Cc1cc(C)cc(NC(=O)CSc2nc3nc(C)cc(C)n3n2)c1 the results were Arrestin-AP2 inh 68*, DSG3 Ab inh 101, TbMetRS inhib 0, Yeast UUG start -11, Arr-AP2 CP1 -7 and GST GSH counter 5.
For CN1C2=CC=CC=CC2=[N+](C)C12C([N+](=O)[O-])=CC(=[N+]([O-])[O-])C=C2[N+](=O)[O-] (stereo not given) the results were Arrestin-AP2 inh -10, DSG3 Ab inh 93, TbMetRS inhib -1, Rce1 inh inactive and Yeast UUG start -1.
`CN1C2=CC=CC=CC2=[N+](C)C12C=CC(=[N+]([O-])[O-])C=C2[N+](=O)[O-]` (stereo not given) gave Arrestin-AP2 inh 54*, DSG3 Ab inh 76*, TbMetRS inhib -2, Rce1 inh inactive, Arr-AP2 CP1 2 and GST GSH counter -7.
Screening Oc1ccc(/C=N/Nc2nc(N3CCCC3)nc(N3CCCC3)n2)cc1O returned Arrestin-AP2 inh 58*, DSG3 Ab inh 104, TbMetRS inhib -1, Rce1 inh inactive, Yeast UUG start 2, Arr-AP2 CP1 -2 and GST GSH counter 4.
For O=C(/C=C/c1ccccc1[N+](=O)[O-])NCCCN1CCCC1=O the results were Arrestin-AP2 inh 57*, DSG3 Ab inh 112, TbMetRS inhib 0, Rce1 inh inactive, Yeast UUG start -6, Arr-AP2 CP1 0 and GST GSH counter -7.
Screening O=[N+]([O-])c1ccc(CNc2ccc(Cl)cc2)s1 returned Arrestin-AP2 inh 4, DSG3 Ab inh 127, TbMetRS inhib 0, Rce1 inh inactive and Yeast UUG start -21.
O=[N+]([O-])c1ccc(CNc2cccc(Cl)c2)s1 was read as Arrestin-AP2 inh 60*, DSG3 Ab inh 121, TbMetRS inhib 0, Rce1 inh inactive, Yeast UUG start 0, Arr-AP2 CP1 -7 and GST GSH counter 1.
`C[C@H]1CN([C@@H](C)CO)C(=O)c2cc(NS(=O)(=O)c3ccc(F)cc3)ccc2O[C@@H]1CN(C)CC1CC1` gave Yeast UUG start 11.

3 compounds already listed, arranged by count of non-hydrogen atoms, descending:
For CN1C2=CC=CC=CC2=[N+](C)C12C([N+](=O)[O-])=CC(=[N+]([O-])[O-])C=C2[N+](=O)[O-] (stereo not given) the results were Arrestin-AP2 inh -10, DSG3 Ab inh 93, TbMetRS inhib -1, Rce1 inh inactive and Yeast UUG start -1.
For Cc1cc(C)cc(NC(=O)CSc2nc3nc(C)cc(C)n3n2)c1 the results were Arrestin-AP2 inh 68*, DSG3 Ab inh 101, TbMetRS inhib 0, Yeast UUG start -11, Arr-AP2 CP1 -7 and GST GSH counter 5.
`O=C(Nc1nnc(-c2ccncc2)o1)C1CCCCC1` gave Arrestin-AP2 inh 19, DSG3 Ab inh 103, TbMetRS inhib 0 and Rce1 inh inactive.

Screening data as filed in PubChem.
